Tested on: A7R5
Experiment: Antiproliferative activity against rat A7r5 cells assessed as reduction in cell viability after 24 hrs by MTT assay
Format: functional, cell-based

CO[C@]1(CC[C@@H](C)CO[C@@H]2O[C@H](CO)[C@@H](O)[C@H](O)[C@H]2O)O[C@H]2C[C@H]3[C@@H]4CC=C5C[C@@H](O[C@@H]6O[C@H](CO)[C@@H](O[C@@H]7O[C@@H](C)[C@H](O)[C@@H](O)[C@H]7O)[C@H](O)[C@H]6O[C@@H]6O[C@@H](C)[C@H](O)[C@@H](O)[C@H]6O)CC[C@]5(C)[C@H]4CC[C@]3(C)[C@H]2[C@@H]1C [METHYLPROTODIOSCIN]
Activity: Dose-dependent effect
